For one substance, EC50 (read off the curve), percent of GAA activity bound to the M6P receptor column and eluted with M6P (rhGAA contains M6P) and percent of GAA activity not bound to the M6P receptor column, flow-through peak (rhGAA lacks M6P) results are on record in patent publication US11491243.

Test [1] addresses cation-independent mannose 6-phosphate receptor (CI-MPR). Description: CI-MPR plate binding assay (96-well plate coated with CI-MPR, bound GAA activity measured).
Test [2] shares this target. Description: CI-MPR (M6P receptor) affinity chromatography; GAA activity (F460) of the fractions; elution with an M6P gradient.
For test [3] the target is unchanged. Put plainly: CI-MPR (M6P receptor) affinity chromatography; GAA activity (F460) of the fractions; peak before M6P is added.

In general, EC50 (read off the curve) refers to the concentration that produces a half-maximal response. High values mean lower potency in that assay, low ones higher potency in that assay. On to “alglucosidase-alfa (from UniProt P10253 57-952) (enzyme)”, for which the 50% effective concentration (EC50 (read off the curve)) in test [1] amounted to 4 nM. In test [2], the percent of GAA activity bound to the M6P receptor column and eluted with M6P (rhGAA contains M6P) was found to be 27%. Besides, the percent of GAA activity not bound to the M6P receptor column, flow-through peak (rhGAA lacks M6P) in test [3] was 73%.
